Laboratory results reported in paper PMC4538835.

Molecular target: TAMRA-labelled ERM_(38–68) F47L (human) (UniProt P41161)
Assay: fluorescence polarisation

B1: MED25 ACID/PTOV domain (residues 391 to 548) (domain or fragment)
chain: GQQSVSNKLLAWSGVLEWQEKPKPASVDANTKLTRSLPCQVYVNHGENLKTEQWPQKLIMQLIPQQLLTTLGPLFRNSRMVQFHFTNKDLESLKGLYRIMGNGFAGCVHFPHTAPCEVRVLMLLYSSKKKIFMGLIPYDQSGFVNGIRQVITNHKQVQ
- Kd: 2600 nM
